Consider three compounds from US6958333B1, “Biarylurea derivatives” (Banyu Pharmaceutical Co., Ltd., priority 1999, dated 2005).

The chains behind the UniProt entries cited, without tags or fusion partners.
UniProt P11802, whole entry: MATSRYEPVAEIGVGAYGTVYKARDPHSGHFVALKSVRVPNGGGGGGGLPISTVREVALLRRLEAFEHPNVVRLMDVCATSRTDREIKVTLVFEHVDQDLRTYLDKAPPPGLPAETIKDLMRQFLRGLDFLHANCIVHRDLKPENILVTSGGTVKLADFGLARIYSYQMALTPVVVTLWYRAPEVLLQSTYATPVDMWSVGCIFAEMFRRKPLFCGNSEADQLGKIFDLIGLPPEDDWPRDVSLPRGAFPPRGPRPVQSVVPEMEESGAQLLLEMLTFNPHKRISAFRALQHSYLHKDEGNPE
UniProt Q00534, whole entry: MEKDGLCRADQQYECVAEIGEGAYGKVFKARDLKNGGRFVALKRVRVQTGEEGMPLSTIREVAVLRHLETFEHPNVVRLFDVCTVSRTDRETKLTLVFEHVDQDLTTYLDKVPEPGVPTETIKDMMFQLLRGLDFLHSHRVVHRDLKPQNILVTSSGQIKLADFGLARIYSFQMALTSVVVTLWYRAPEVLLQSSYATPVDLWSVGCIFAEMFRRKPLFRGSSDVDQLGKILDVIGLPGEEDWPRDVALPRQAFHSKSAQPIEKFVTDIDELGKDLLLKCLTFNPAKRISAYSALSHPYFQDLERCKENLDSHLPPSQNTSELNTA
UniProt P24385, whole entry partner: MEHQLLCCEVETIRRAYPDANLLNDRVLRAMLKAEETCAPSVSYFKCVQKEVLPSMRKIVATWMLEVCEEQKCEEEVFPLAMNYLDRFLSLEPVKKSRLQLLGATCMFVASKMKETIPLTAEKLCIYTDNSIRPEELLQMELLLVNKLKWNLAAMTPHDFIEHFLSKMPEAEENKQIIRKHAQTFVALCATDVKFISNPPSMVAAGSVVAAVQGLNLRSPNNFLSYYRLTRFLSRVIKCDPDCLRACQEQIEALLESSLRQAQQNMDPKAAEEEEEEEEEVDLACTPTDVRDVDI
UniProt P30281, whole entry partner: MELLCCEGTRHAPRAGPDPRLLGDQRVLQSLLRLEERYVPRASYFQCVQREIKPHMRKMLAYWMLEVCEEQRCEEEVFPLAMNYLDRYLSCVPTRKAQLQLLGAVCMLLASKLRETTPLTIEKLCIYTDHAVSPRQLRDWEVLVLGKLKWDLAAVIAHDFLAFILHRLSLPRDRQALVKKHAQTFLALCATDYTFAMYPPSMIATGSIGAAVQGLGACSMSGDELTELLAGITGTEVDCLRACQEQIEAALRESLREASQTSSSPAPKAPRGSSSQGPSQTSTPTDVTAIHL

In one assay the test system is MKN-1 cells. The assay is described as follows: Activity of inhibiting cell growth, MKN-1 (sulforhodamine B). The following applies: read-out: IC50(μM) MKN-1 Cell, cell growth inhibition, 3 days incubation.
A further assay addresses cyclin D1-Cdk4 (Homo sapiens, UniProt P11802). The assay can be described thus: Enzyme assay of cyclin D1-Cdk4 (33P-ATP phosphorylation of RB peptide substrate). In kind it is biochemical. The following applies: read-out: IC50(μM) cyclin D1-Cdk4; Table 1, first value column; 50 μM ATP, 100 μM peptide substrate, 30° C., 45 min.
Another assay deals with HCT116 cells. The assay is described as follows: Activity of inhibiting cell growth, HCT116 (sulforhodamine B). The settings on record: read-out: IC50(μM) HCT116 Cell, cell growth inhibition, 3 days incubation.
The next assay addresses cyclin D1-Cdk6 (Homo sapiens, UniProt Q00534). The assay is described as follows: Enzyme assay of cyclin D1-Cdk6 (33P-ATP phosphorylation of peptide substrate). The settings on record: read-out: IC50(μM) cyclin D1-Cdk6, 400 μM peptide substrate, 50 μM ATP, 30° C.
The target in another assay is cyclin D2-Cdk4 (Homo sapiens, UniProt P11802). The assay can be described thus: Enzyme assay of cyclin D2-Cdk4 (33P-ATP phosphorylation of RB peptide substrate). The settings on record: read-out: IC50(μM) cyclin D1-Cdk4, Table 1, second value column (head repeats cyclin D1-Cdk4), 50 μM ATP, 100 μM peptide substrate, 30° C., 45 min. It is filed as biochemical.
The target of another assay is cyclin D3-Cdk6 (Homo sapiens, UniProt Q00534). The assay is described as follows: Enzyme assay of cyclin D3-Cdk6 (33P-ATP phosphorylation of peptide substrate). The settings on record: read-out: IC50(μM) cyclin D3-Cdk6; 100 μM peptide substrate, 50 μM ATP, 30° C.

Where two headings read alike, the source gives them in different places.

On to `C=C(O)c1ccc2n1C(=O)c1cccc(NC(=O)Nc3ccccn3)c1-2`, for which the IC50 came out at 0.1 µM in the assay on MKN-1 cells; 0.061 µM at cyclin D1-Cdk4; 0.013 µM with HCT116 cells; 0.013 µM at cyclin D1-Cdk6; 0.019 µM at cyclin D2-Cdk4.

As to `O=C(Nc1cc(CNC2Cc3ccc(Cl)cc3C2)[nH]n1)Nc1cccc2c1C1CCCN1C2=O` (racemic), the IC50 at cyclin D3-Cdk6 turned out to be 0.022 µM.

`CCCCNCCc1ccnc(NC(=O)Nc2cccc3c2C2CCCN2C3=O)c1` (single isomer, unassigned): the concentration for half-maximal inhibition (IC50) at cyclin D1-Cdk6 (tested form: HCl) was 0.065 µM; on cyclin D2-Cdk4 (tested form: HCl) it was 0.033 µM.
